For the assay, the target named is PDE4B1 (Homo sapiens, UniProt Q07343). Description: PDE4 activity determination, hydrolysis of [3H]-cAMP (PDE-SPA kit), PDE4B1. It is filed as biochemical. The settings on record: human recombinant PDE4B1; mean ± SD of three to four experiments in duplicate; read-out: Potency (IC50 nM) PDE4B1.

By UniProt entry, the sequences of proteins in these tests, tags left out. Where a name states a change or a piece, a line headed by the entry shows the natural chain unless it says otherwise.
UniProt Q07343: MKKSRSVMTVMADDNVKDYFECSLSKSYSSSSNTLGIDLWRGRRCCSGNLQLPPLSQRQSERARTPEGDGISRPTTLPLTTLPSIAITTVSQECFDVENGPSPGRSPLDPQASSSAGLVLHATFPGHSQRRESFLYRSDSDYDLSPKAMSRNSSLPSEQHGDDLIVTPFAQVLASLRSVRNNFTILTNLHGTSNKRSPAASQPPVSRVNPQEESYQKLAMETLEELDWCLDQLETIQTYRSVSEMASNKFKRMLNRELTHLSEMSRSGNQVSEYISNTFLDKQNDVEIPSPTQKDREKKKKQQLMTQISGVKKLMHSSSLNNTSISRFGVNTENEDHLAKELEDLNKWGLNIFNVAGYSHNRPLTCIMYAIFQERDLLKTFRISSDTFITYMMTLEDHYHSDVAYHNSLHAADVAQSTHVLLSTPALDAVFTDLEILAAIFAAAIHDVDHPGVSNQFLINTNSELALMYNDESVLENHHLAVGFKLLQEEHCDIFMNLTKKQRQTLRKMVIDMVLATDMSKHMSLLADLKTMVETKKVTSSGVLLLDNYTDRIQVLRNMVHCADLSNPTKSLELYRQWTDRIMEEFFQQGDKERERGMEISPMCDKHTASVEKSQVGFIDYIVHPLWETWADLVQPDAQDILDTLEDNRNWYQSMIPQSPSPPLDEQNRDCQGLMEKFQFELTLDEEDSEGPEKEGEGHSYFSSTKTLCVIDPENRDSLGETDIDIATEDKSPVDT

Broadly, the IC50 is the concentration that gives 50% inhibition.

With `CCn1nc(-c2ccccc2)c(C(C)=O)c(Nc2ccc(C(=O)O)cc2)c1=O` [2n, 4-(5-Acetyl-2-ethyl-3-oxo-6-phenyl-2,3-dihydropyridazin-4-ylamino)benzoic Acid], the IC50 was 9.24 ± 0.65 nM.

The values are drawn from publication PMC12943719 (Molecules, 2026).
